Tests used:
[1] = tested on: Staphylococcus aureus; details: SA-1
[2] = tested on: Escherichia coli; details: ATCC 25922

## GENTAMICIN
[1]
  MIC: 0.5 µg/mL
[2]
  MIC: 0.5 µg/mL

Source: ChEMBL document CHEMBL4265973, “Broad-spectrum antibacterial amphiphilic aminoglycosides: A new focus on the structure of the lipophilic groups extends the series of active dialkyl neamines” (Eur J Med Chem, 2018)
